{"sequences": {"note": "Chains of the proteins cited; added tags and fusions are not shown.", "UniProt P03372, whole entry": "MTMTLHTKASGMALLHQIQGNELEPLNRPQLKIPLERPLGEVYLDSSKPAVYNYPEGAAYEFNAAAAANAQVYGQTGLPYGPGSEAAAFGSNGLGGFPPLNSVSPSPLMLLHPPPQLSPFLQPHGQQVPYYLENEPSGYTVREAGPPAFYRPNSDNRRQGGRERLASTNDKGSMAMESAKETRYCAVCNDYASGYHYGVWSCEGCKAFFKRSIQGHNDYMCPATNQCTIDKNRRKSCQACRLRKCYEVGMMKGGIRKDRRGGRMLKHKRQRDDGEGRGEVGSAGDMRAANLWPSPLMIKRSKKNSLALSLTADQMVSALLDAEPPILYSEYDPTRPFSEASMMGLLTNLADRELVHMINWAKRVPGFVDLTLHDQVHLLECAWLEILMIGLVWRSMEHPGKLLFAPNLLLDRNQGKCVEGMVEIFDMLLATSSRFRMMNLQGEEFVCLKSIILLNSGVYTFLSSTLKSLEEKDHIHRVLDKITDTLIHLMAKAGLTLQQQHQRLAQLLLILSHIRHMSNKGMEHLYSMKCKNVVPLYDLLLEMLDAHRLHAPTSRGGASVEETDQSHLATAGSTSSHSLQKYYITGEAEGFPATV"}, "source": "paper PMC7261373", "about": "(Journal of medicinal chemistry, 2019)", "target": "ERα (Homo sapiens, UniProt P03372)", "assay": "ER western assay with proteasomal inhibitor MG-132 in MCF7:WS8 cells", "assay_type": "cell-based", "details": "MCF7:WS8, 10 nM, MG-132 1 μM, western blot"}
{"smiles": "C[C@]12CC[C@@H]3c4ccc(O)cc4C[C@@H](CCCCCCCCC[S+]([O-])CCCC(F)(F)C(F)(F)F)[C@H]3[C@@H]1CC[C@@H]2O", "note": "(stereo partly shown) [compound 2, fulvestrant, reference compound]", "values": [{"measurement": "proteasome dependence of ERα degradation, in words", "result": "coadministration of a proteasome inhibitor blocked the actions"}]}
